scFv variants of Ab-14 (light chain) against a SARS-CoV-2 spike peptide

Binding partner: SARS-CoV-2 spike HR2 peptide, sequence PDVDLGDISGINAS.

Parent scFv Ab-14: VH joined to VL by a (GGGGS)3 linker. Changes lie in the light chain CDRs alone.
VH: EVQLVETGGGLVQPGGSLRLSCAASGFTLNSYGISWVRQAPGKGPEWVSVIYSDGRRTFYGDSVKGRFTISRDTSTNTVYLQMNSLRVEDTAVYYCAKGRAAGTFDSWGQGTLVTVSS
VL: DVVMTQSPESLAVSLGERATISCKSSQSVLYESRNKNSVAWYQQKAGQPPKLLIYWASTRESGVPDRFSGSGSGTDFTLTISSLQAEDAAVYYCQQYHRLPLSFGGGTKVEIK

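Phage display of a naive human antibody library on the peptide gave the parent. In library AAYL50, one, two or three CDR residues were substituted; doubles and triples were drawn at random. The scFvs were displayed on barcoded MATa yeast, the peptide on MATalpha yeast. Pairs that bind mate more often; barcode pairs of the diploids are counted by sequencing. Each replicate has its own calibration line, from reference interactions of the BCL2 family. There are three technical replicates.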

Variants are written as CDR1, CDR2 and CDR3 of the light chain (limits as in the source). Parent: KSSQSVLYESRNKNSVA, WASTRES, QQYHRLPLS. Numbers give log10(Kd / nM), so 0 is 1 nM and 3 is 1 µM. Smaller is tighter. Averages over replicates are reported, and they cover detected replicates only. "ND" means that the variant was in the library but no mating with the target was seen in that replicate; the authors take this as a sign of poor binding, and no number exists. Nonspecific signal, from three strains lacking the peptide, appeared in 18% of pairings of library AAYL50, centred on 4.19 (5% of these signals below 2.99); values are not corrected for it. For each scFv, signals with the empty controls are counted beside the result, with their mean in brackets.

CDR-L1	CDR-L2	CDR-L3	log10 Kd (nM) by replicate	mean, log10 nM	signal with controls
KDSQSVLYESRNENSVA	WATTRES	QQYHRLPLS	1.28 1.20 1.08	1.19	2/9 (4.61)
KSSQSVLYESRNKNPVA	WASFRES	QQYHRLPYS	2.02 1.92 2.87	2.27	2/9 (3.85)
KWSYEVLYESRNKNSVA	WASTRES	QQYHRLPLS	2.11 1.92 2.19	2.07	2/9 (3.73)
KSNQSVLFESRNKNSVA	WASTRGS	QQYHRLPLS	2.46 2.39 2.69	2.51	3/9 (4.00)
KSSQSHLAESFNKNSVA	WASTRES	QQYHRLPLS	0.45 0.81 0.67	0.65	0/9
KSSQSVLYESFNKNSVA	WASTRES	QQWHTLPLS	ND ND ND	ND	1/9 (4.18)
KSSQCVLYESRNKNSVA	WAGTRES	QQYHRLPAS	ND ND ND	ND	3/9 (4.44)
KSSMSVLYESRNKNSQA	WASTRES	QQYHRVPLS	ND 3.74 3.95	3.84	3/9 (3.58)
KLSQSVLYESRNKNSVG	WASTRQS	QQYHRLPLS	0.88 1.47 ND	1.17	0/9
VSSQSVLYESRNKNSHA	WASTRES	QQYHRLPLS	ND 3.70 ND	3.70	6/9 (4.61)
KSSQSVLYSSRNKNSVA	WASTGES	QQYHTLPLS	ND ND 4.19	4.19	0/9
KSSQSVLYESRLKNSPA	WASTRES	QQYHRLPLA	ND ND ND	ND	0/9
KSYQSVLYESRNKNEVA	WASTRES	QQYHRLPVS	4.35 ND ND	4.35	0/9
KSSQSVLAESRNKNSVA	WASTHES	QQYKRLPLS	3.01 2.65 3.46	3.04	0/9
KSSQEVLYESRNKKSVA	WASTRES	QLYHRLPLS	3.20 3.60 3.82	3.54	3/9 (4.60)
KSSQSVLYHSRNKNSVA	WASTRES	IQYHRLHLS	ND ND ND	ND	1/9 (4.07)
KSIQSVLYESRNKNSVA	WASTRIS	QQYHRLPLS	1.26 1.25 1.30	1.27	5/9 (4.19)
KSWQSVLYESRNKNSVA	RASTRES	QQYHRLCLS	ND ND ND	ND	0/9
KSSQQVLYRSRDKNSVA	WASTRES	QQYHRLPLS	1.56 1.37 1.14	1.36	1/9 (4.08)
KSSQSVLYESRNKNNVA	WDSTRES	QQYHELPLS	ND ND ND	ND	0/9
KSSQSVLYERRNKNSVC	WASTRES	DQYHRLPLS	ND ND ND	ND	1/9 (3.60)
KSSLSVLPESRNKNSVA	WASTRES	SQYHRLPLS	2.36 1.85 2.15	2.12	0/9
KSSQDVLYESRNKNSVA	WASTREC	IQYHRLPLS	3.33 ND ND	3.33	3/9 (4.17)
KSSQSVLYEQRNKNNVA	WQSTRES	QQYHRLPLS	ND ND ND	ND	0/9
KSSQSVLYESRNKNSVA	WASTREC	QQYHRLPFS	1.29 1.40 1.42	1.37	7/9 (5.28)
KGAQSVLYESRNKNSVA	WASTRES	GQYHRLPLS	1.05 1.25 1.36	1.22	3/9 (4.20)
KSSQFVLYESRNKNSVR	WASYRES	QQYHRLPLS	ND ND ND	ND	0/9
KQAQSVLYESRNKNSIA	WASTRES	QQYHRLPLS	0.51 0.61 0.56	0.56	2/9 (3.83)
KSSQSVLGESRNKNSVA	WASTWES	QQIHRLPLS	6.00 ND ND	6.00	4/9 (3.94)
KSSQSVLVESRNKNHVA	WASTRES	QQYHRLPLR	ND 2.71 ND	2.71	0/9
KSSQSILYEARNKNSVA	WASTRES	QQYHRTPLS	5.05 5.06 ND	5.06	2/9 (4.62)

The first 3 variants above that were never detected:

| CDR-L1 | CDR-L2 | CDR-L3 | log10 Kd (nM) by replicate | mean, log10 nM | signal with controls |
|---|---|---|---|---|---|
| KSSQSVLYESFNKNSVA | WASTRES | QQWHTLPLS | ND ND ND | ND | 1/9 (4.18) |
| KSSQCVLYESRNKNSVA | WAGTRES | QQYHRLPAS | ND ND ND | ND | 3/9 (4.44) |
| KSSQSVLYESRLKNSPA | WASTRES | QQYHRLPLA | ND ND ND | ND | 0/9 |

Values reported by Engelhart et al. 2022, doi:10.1038/s41597-022-01779-4 (FLAb copy).